Literature values in patent US20020165208A1, “Compositions and methods relating to hypertension” (priority 2000, published 2002).

Tested on: SHR rats
Conditions: castrated male SHR rats, TST replacement; cited from earlier work

## C[C@]12CC[C@H]3[C@@H](CCC4=CC(=O)CC[C@@]43C)[C@@H]1CC[C@@H]2O [TST, testosterone]
  Effect on normotensive effects of castration: reversed by TST replacement
